The values that follow come from US11124550B2, “Proteinaceous molecules and methods of use” (priority 2015, dated 2021).

This assay concerns wild-type CA1 GABAergic inhibitory interneurons. Put plainly: Brain-slice whole-cell recordings, wild-type inhibitory interneurons. The settings on record: 10 nM. In kind it is cell-based, mouse. How it is done: Mice (post-natal day 14-16) were anaesthetized using isoflurane and sacrificed by decapitation. Brain slices (300-μm thick) were cut using a vibratome in the sagittal plane. Slices were kept at room temperature until recording. The slices were transferred to a recording chamber constantly perfused at 34° C. with artificial cerebrospinal fluid (CSF) solution consisting of: 125 mM NaCl, 2.5 mM KCl, 25 mM NaHCO3, 1.25 mM NaH2PO4, 1 mM MgCl2, 2 mM CaCl2) and 10 mM glucose, aerated with 95% O2 and 5% CO2 (final pH of 7.4). Whole-cell patch-clamp recordings were made using a MultiClamp 700A amplifier and pClamp acquisition software (Molecular Devices) from neurons visually identified using infrared differential interference contrast imaging (BX51, Olympus). Electrodes were pulled using a Sutter P-2000 puller (Sutter Instruments) from borosilicate micropipettes (World Precision Instruments) with an initial resistance of ˜2-3 megaohms and filled with intracellular solution consisting of 125 mM KGlu, 4 mM KCl, 2 mM MgCl2, 10 mM HEPES, 10 mM EGTA, 4 mM ATP-Mg, 0.3 mM GTP-Na, and 8 mM Biocytin Hydrochloride adjusted to a final pH of 7.3 with KOH. D-Mannitol was used to adjust osmolarity to 300 mOsm. Bridge balance was applied to all recordings. Voltage recordings were filtered at 30 kHz and sampled at 100 kHz. A holding current was injected into neurons if required, setting their holding potential to approximately −75 mV. A current injection/action potential (AP) frequency relationship was established by injecting an 800 ms square pulse of progressively depolarising currents. An automated AP detection algorithm in Axograph was used to detect AP with visual confirmation. The integrated number of APs between injection current bins of the i-o relationships was calculated (Axograph X) in order to allow comparison between control and Hm1a. AP threshold voltage was defined as the voltage at which velocity reached 10 mV/ms. For the AP waveform analysis, amplitude was measured from threshold to peak, rise-time was determined as the time between 10% to 90% of the AP amplitude and AP width was measured at 50% of the peak amplitude. AP measured at ‘collapse’ were selected for each individual cell at the first current injection at which AP collapse was robust. APs at the same current injection were analyzed in the presence of Hm1a. Membrane input resistance was measured in current clamp mode by measuring the last 200 ms of the voltage trace generated by a current injection of −10 pA.
The impact of the peptide on non-collapsing wild-type CA1 GABAergic inhibitory interneurons was also tested (FIG. 6). […] Hm1a had no impact on resting potential (Table 8) or input resistance (270±40 versus 330±40 MΩ, p=0.76, n=6) of the wild-type GABAergic inhibitory neurons. Further, no changes in any of the morphology measurements of APs analysed at rheobase were seen (Table 8).

Take `CC(C)C[C@@H]1NC(=O)[C@H](Cc2ccc(O)cc2)NC(=O)[C@H](CCCNC(=N)N)NC(=O)[C@@H](NC(=O)[C@@H](N)CCC(=O)O)CSSC[C@@H]2NC(=O)[C@@H]3CSSC[C@@H](C(=O)N[C@@H](C)C(=O)N[C@@H](Cc4c[nH]c5ccccc45)C(=O)N[C@@H](CC(=O)O)C(=O)NCC(=O)N[C@H](C(=O)N[C@@H](Cc4ccccc4)C(=O)N[C@@H](CO)C(=O)O)[C@@H](C)O)NC(=O)[C@H](Cc4ccc(O)cc4)NC(=O)[C@H](CCCCN)NC(=O)[C@H](Cc4c[nH]c5ccccc45)NC(=O)[C@H](CC(=O)O)NC(=O)[C@H](CO)NC(=O)[C@H](CCCNC(=N)N)NC(=O)[C@H](CSSC[C@H](NC(=O)CNC(=O)CNC(=O)[C@H](Cc4ccccc4)NC1=O)C(=O)N[C@@H](CO)C(=O)N[C@@H](CO)C(=O)N[C@@H]([C@@H](C)O)C(=O)N[C@@H](CO)C(=O)N[C@@H](CC(=O)O)C(=O)N3)NC(=O)[C@H](CO)NC(=O)[C@H](CC(C)C)NC(=O)[C@H](Cc1c[nH]cn1)NC(=O)[C@H](CCCCN)NC2=O` [Hm1a]: the rheobase entry is reported as “no shift”. The compound also had an input resistance (270±40 versus 330±40, p=0.76, no impact) of 330±40 MΩ. In addition, the current-AP relationship entry (at intermediate current injections, normalized at higher currents) is on record as “small right shift”. The “Action potential Rise at rheobase” value (control 0.49 ± 0.6) turned out to be 0.43 ± 0.4 ms. Besides, for the setting “control 1.4 ± 0.1”, the “Action potential Width at rheobase” value is given as 1.3 ± 0.1 ms. This compound also returned an RMP (control 79 ± 2) of 79 ± 2 mV. Besides, for the setting “control 79 ± 9, n = 6”, the “Action potential Amp at rheobase” value came out at 79 ± 8 mV. In addition, the “Action potential Threshold at rheobase” value (control −44 ± 3) is recorded as −38 ± 2 mV.
